Tested on: C2C12 cells
Assay: ALP quantification and staining
Type: cell-based
Conditions: 200 ng/mL soluble hBMP-2 at each medium refresh; 7 days; versus films pre-incubated with hBMP-2
Description: For cell experiments, the sterile films were washed three times with PBS and incubated with concentrated hBMP-2 in PBS for one hour with gentle agitation. Subsequently, the films were extensively washed with TBST (0.5%) and PBS to remove any traces of the washing buffer prior to cell seeding.
C2C12 Luc express luciferase under the control of a ID1 promoter—a BMP-2 target gene (Zilberberg et al., 2007, BMC Cell Biol. 8(41). DOI: 10.1186/1471-2121-8-41).
For the analysis of the amount of ALP produced, C2C12 cells were seeded on films at 20,000 cells/cm2 and allowed to attach overnight. Next day the amount of FBS was reduced to 2% and the cells cultured during 7 days with medium refreshes every 3 days. After 7 days the cells were lysed and the amount of ALP quantified using the CDP-star Universal Alkaline Phosphatase Detection Kit (Sigma-Aldrich) according to the manufacturer's instructions. The values for ALP were normalized to the amount of DNA, which was quantified with the CyQUANT cell proliferation assay (Invitrogen). Staining against ALP was performed with Fast Violet B Salt (Sigma-Aldrich) dye.

B1: soluble hBMP-2: soluble human BMP-2 added to the culture medium (protein)
chain: QAKHKQRKRLKSSCKRHPLYVDFSDVGWNDWIVAPPGYHAFYCHGECPFPLADHLNSTNHAIVQTLVNSVNSKIPKACCVPTELSAISMLYLDENEKVVLKNYQDMVVEGCGCR
ALP response to soluble hBMP-2: even more pronounced response
